According to PubChem BioAssay AID2517 (National Center for Advancing Translational Sciences (NCATS), 2010):
This is a selection; strong and weak results do not stand in their true shares. Results filed as inconclusive are left out. Active and inactive are the calls of the source. The call rests on the fitted dose curve; in most records, active means well fitted inhibition curve with a large enough effect; inconclusive means small, poorly fitted or top-dose-only effect; inactive means no such curve, though single readings can be large or run the other way.

Chains of the proteins cited; added tags and fusions are not shown.
UniProt P27695, whole entry, looked up: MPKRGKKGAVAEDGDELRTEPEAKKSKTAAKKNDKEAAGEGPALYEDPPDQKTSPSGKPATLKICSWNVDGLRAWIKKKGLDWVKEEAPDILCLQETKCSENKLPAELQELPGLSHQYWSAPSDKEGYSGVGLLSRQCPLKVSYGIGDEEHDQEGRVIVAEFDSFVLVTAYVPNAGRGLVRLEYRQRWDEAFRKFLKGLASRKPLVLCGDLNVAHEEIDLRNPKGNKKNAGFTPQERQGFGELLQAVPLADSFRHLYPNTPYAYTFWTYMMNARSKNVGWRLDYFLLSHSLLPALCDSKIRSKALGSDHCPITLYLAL

Molecular target: DNA repair nuclease/redox regulator APEX1 (Homo sapiens) (UniProt P27695)
Assay: qHTS Assay for Inhibitors of the Human Apurinic/apyrimidinic Endonuclease 1 (APE1);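 further: plate controls were vehicle for no effect and reference inhibitor for full effect; nearly all actives have a fitted effect of over 55% in size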
Conditions: recombinant APE1, TAMRA/BHQ-2 abasic DNA cleavage fluorescence; series mostly up to 65.8 µM; activity change, negative = inhibition: at the top concentration

Compound | activity change, negative = inhibition | Potency
COc1cc(C(=O)NCC2(N3CCOCC3)CCCCC2)ccc1OCC(C)C | inactive: -19.1% | 
C[As](=O)(O)c1cccc(C(=O)O)c1 | inactive: 56.9% | 
CCN(N=Nc1nonc1N)c1nonc1N | inactive: -0.712% | 
O=[N+]([O-])c1cc([N+](=O)[O-])c(CCN2CCOCC2)c([N+](=O)[O-])c1 | inactive: 12.9% | 
Cc1ccc(NP(=O)(Oc2ccccc2F)Oc2ccccc2F)nc1 | inactive: -2.85% | 
CCOP(=O)(Nc1ccccc1)OCC |  | inactive
Cc1cc(SC(NC(=O)c2ccc(F)cc2)C(Cl)(Cl)Cl)ncn1 (centres undefined) | inactive: -0.362% | 
O=C(O)c1ccccc1[As](=O)(O)O | inactive: -2.24% | 
CC(=O)Nc1ccc([As](=O)(O)O)cc1 | inactive: 4.08% | 
O=P(Nc1nc2ccc(Cl)cc2s1)(c1ccccc1)c1ccccc1 | inactive: 0.582% | 
CC(C)CC(=O)NC(Sc1ccc(Cl)cc1)C(Cl)(Cl)Cl (centres undefined) | inactive: 0.108% | 
Cc1c2non([O-])c-2c(C)[n+](=O)[n+]1[O-] | inactive: -2.95% | 
O=C(NC(Sc1ccncn1)C(Cl)(Cl)Cl)c1ccccc1 (centres undefined) | inactive: 7.18% | 
Cc1ccc(OP(=O)(Nc2nccs2)Oc2ccc(C)cc2)cc1 | inactive: -0.203% | 
COc1ccccc1OP(=O)(Nc1ccc(C)cn1)Oc1ccccc1OC | inactive: -0.762% | 
CN1CCCC(OC(=O)C(c2ccccc2)c2ccccc2)C1 (centres undefined) | inactive: 29.4% | 
NC(=O)c1cc([N+](=O)[O-])cc([N+](=O)[O-])c1N | inactive: -6.08% | 
Cc1ccc(N/C(=N/P(=O)(N2CCOCC2)N2CCOCC2)N2CCOCC2)cc1 | inactive: -7.75% | 
CN(C)C(=O)OCCc1n(C)cc[n+]1C | inactive: 4.77% | 
CC(=O)C1=CCCC2CCC1N2 (centres undefined) |  | inactive
CC1CCN(C(=O)Oc2c(Cl)cc(Cl)c3cccnc23)CC1 | inactive: -4.18% | 
Nc1ccc([As](=O)(O)c2ccc(N)cc2)cc1 | inactive: 3.17% | 
CCN(/C(=N/P(=O)(N1CCOCC1)N1CCOCC1)N1CCOCC1)c1ccc(OC)cc1 | inactive: 2.27% | 

Compound | activity change, negative = inhibition | Potency
CC(=O)N1C2C3N(C(C)=O)C1C1N(C(C)=O)C(C(N1C(C)=O)N3C(C)=O)N2C(C)=O | inactive: -1.02% | 
O=[N+]([O-])c1cccc2n[nH]nc12 | inactive: 14.5% | 
O=[N+]([O-])c1cc([N+](=O)[O-])c(CCNc2ccccc2)c([N+](=O)[O-])c1 | inactive: -1.72% | 
Cc1ccc(NP(=O)(Oc2ccccc2)Oc2ccccc2)nc1 | inactive: 5.44% | 
COc1ccc(C2=NCC(CBr)S2)cc1 (centres undefined) | inactive: -2.67% | 
O=[N+]([O-])c1cccc(NC2=NCC(CBr)S2)c1 (centres undefined) | inactive: 0.825% | 
O=C(O)CNc1ccc([As](=O)(O)O)cc1 | inactive: -0.829% | 
CC(C)(C)C(=O)NC(Sc1ccncn1)C(Cl)(Cl)Cl (centres undefined) | inactive: -1.34% | 
O=[N+]([O-])c1ncn(CCn2ncnc2[N+](=O)[O-])n1 | inactive: -17.2% | 
O=C(Nc1cc([As](=O)(O)O)ccc1O)c1ccccc1 | inactive: -9.15% | 
Nc1ccc([As](=O)(O)c2ccc([N+](=O)[O-])cc2)cc1 | inactive: 1.55% | 
O=C(OC1CN2CCC1CC2)c1cccc(Cl)c1 (centres undefined) | inactive: -1.65% | 
CC(=O)NC(SC(=S)N(C)C)C(Cl)(Cl)Cl (centres undefined) | inactive: -0.761% | 
O=[N+]([O-])c1ncn(CCn2cnc([N+](=O)[O-])n2)n1 | inactive: -4.59% | 
O=[N+]([O-])c1ccc(O)c(/C=N/Nc2ccc([N+](=O)[O-])cc2[N+](=O)[O-])c1 | inactive: -21.5% | 
O=[As](O)(c1ccccc1)c1ccc(O)cc1 | inactive: 1.77% | 
C[C@H]1OP(=O)(Oc2ccccc2)[C@H](O)[C@H](O)[C@H]1N=[N+]=[N-] (some centres undefined) | inactive: -1.1% | 
O=P(Nc1nc2ccccc2s1)(c1ccccc1)c1ccccc1 | inactive: 4.11% | 
CN(C(=O)Cc1ccccc1)[C@H]1CC[C@@]2(CCCO2)C[C@@H]1N1CCCC1 | inactive: 15% | 
Cc1cc([N+](=O)[O-])cc([N+](=O)[O-])c1O | inactive: -0.29% | 
O=P(Nc1ccccn1)(c1ccc(Br)cc1)c1ccc(Br)cc1 | inactive: 2.82% | 
CCC(C)(OOC(C)(C)C)OOC(C)(C)C | inactive: -4.9% | 
O=P(Nc1nccs1)(c1ccccc1)c1ccccc1 | inactive: -0.048% | 

Compound | activity change, negative = inhibition | Potency
CC(C)C(=O)NC(Sc1ccccc1)C(Cl)(Cl)Cl (centres undefined) | inactive: 1.26% | 
CC(=O)Nc1ccc(Oc2c([N+](=O)[O-])cc([N+](=O)[O-])cc2[N+](=O)[O-])cc1 | inactive: 1.55% | 
CC(=O)Nc1ccc([As](=O)(O)O)c(O)c1 | inactive: -3.13% | 
CC(=O)c1ccc(N2CC2c2ccncc2)cc1 (centres undefined) | inactive: 15.5% | 
C[C@@H]1C=CCP(=O)(Oc2ccccc2)O1 (some centres undefined) | inactive: -0.306% | 
C[C@H]1OP(=O)(Oc2ccccc2)C[C@@H]2O[C@@H]21 (some centres undefined) | inactive: 0.132% | 
Cc1ccccc1CN(C)C(=O)COC(=O)C(O)(c1ccccc1)c1ccccc1 | inactive: -9.47% | 
CC(C)(C)C(=O)NC(Sc1ccccc1)C(Cl)(Cl)Cl (centres undefined) | inactive: -5.78% | 
CCOc1ccc(C2=NCC(CBr)S2)cc1 (centres undefined) | inactive: -2.82% | 
O=P1(Nc2nc3ccc(Cl)cc3s2)COc2ccccc2O1 (centres undefined) | inactive: -1.63% | 
CN(C)C(=O)Oc1noc2ccccc12 | inactive: 12.8% | 
O=c1c2cc([N+](=O)[O-])ccc2[nH]c2c([N+](=O)[O-])cc([N+](=O)[O-])cc12 | inactive: 3.08% | 
CC(NC(=O)COC(=O)C(O)(c1ccccc1)c1ccccc1)c1ccccc1 (centres undefined) | inactive: 49.1% | 
CC(=O)NC(SC(=S)N(CC(C)C)CC(C)C)C(Cl)(Cl)Cl (centres undefined) | inactive: 1.88% | 
Cc1ccc(OP(=O)(Nc2ccccn2)Oc2ccc(C)cc2)cc1 | inactive: -4.41% | 
COC(=O)c1cc2c(s1)N=C(c1ccccc1)N(C)P2(=O)N1CCOCC1 (centres undefined) | inactive: 9.86% | 
CCC(=O)N1C2C3N(C(=O)CC)C1C1N(C(=O)CC)C(C(N1C(=O)CC)N3C(=O)CC)N2C(=O)CC | inactive: -3.18% | 
O=C(OC1CN2CCC1CC2)c1ccccc1 (centres undefined) | inactive: -11.7% | 
O=C(NC1CCS(=O)(=O)C1)NP(=S)(Oc1ccccc1)Oc1ccccc1 (centres undefined) | inactive: -0.356% | 
CCNC(=S)/N=C(\N)N[N+](=O)[O-] | inactive: -7.71% | 
Cc1ccc(NP(=O)(Oc2cccc(C)c2)Oc2cccc(C)c2)nc1 | inactive: 12.2% | 
CCOC(=O)NC(Sc1ccccc1)C(Cl)(Cl)Cl (centres undefined) | inactive: -4.89% | 
c1ccc(-c2nn[nH]n2)c(-c2nn[nH]n2)c1 | inactive: 3.65% | 
